Experimental data as given in patent US20250382268A1, “METHODS AND COMPOSITIONS FOR SELECTIVELY INHIBITING PATHOGENIC MICROBES” (priority 2019, published 2025).

Tested on: pathogens (SA, TR) and skin commensals (RM, SE)
Conditions: Table 1

Oc1ccc(Sc2c[nH]c3ccccc23)cc1 [Compound 156I, 4-((1H-indol-3-yl)thio)phenol]
Selectivity Pathogens to commensal: >4
